{
  "source": "paper PMC8179049",
  "about": "(Chemical Science, 2020)",
  "biological_target": "T1, human AspH (His6-AspH315-758) (Homo sapiens, UniProt Q12797)",
  "T1 construct": "N-Terminally His6-tagged human AspH315-758 (His6-AspH315-758) was produced in Escherichia coli BL21 (DE3); made in house; host or cells: Escherichia coli BL21 (DE3), pET-28a(+) vector",
  "T1 sequence (Q12797 315-758)": "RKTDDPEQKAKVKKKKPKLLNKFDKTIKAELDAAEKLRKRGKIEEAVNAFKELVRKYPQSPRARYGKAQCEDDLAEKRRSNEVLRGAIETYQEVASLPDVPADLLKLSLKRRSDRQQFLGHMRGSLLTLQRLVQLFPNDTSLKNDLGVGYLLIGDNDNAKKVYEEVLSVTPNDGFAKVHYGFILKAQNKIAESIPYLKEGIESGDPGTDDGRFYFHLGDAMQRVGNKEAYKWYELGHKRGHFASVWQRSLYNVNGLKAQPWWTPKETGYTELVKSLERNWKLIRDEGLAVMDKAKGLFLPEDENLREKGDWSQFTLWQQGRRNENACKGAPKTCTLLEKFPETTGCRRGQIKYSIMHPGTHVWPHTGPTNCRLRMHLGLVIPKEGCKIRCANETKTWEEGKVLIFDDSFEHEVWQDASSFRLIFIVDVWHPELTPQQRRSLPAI",
  "assay": "AspH steady-state kinetics by SPE-MS turnover assays",
  "format": "biochemical",
  "conditions": "calculated from the concentration of active AspH (90.8 ± 13.7 nM)",
  "note": "Where “and” joins values, the source holds several entries; their conditions need not be identical. Identical values can stand only once.",
  "data": [
    {"smiles": "CC(CC(=O)O)C(=O)C(=O)O", "note": "(centres unmarked) [compound 16, 3-methyl-2OG]", "values": [
      {"measurement": "k cat", "value": "~0.08 s⁻¹ and 0.08 ± 0.01 s⁻¹"}
    ]},
    {"smiles": "O=C(O)C(=O)c1ccc(C(=O)O)cc1", "note": "[compound 41, 4-carboxyphenylglyoxylic acid]", "values": [
      {"measurement": "k cat", "value": "~0.04 s⁻¹ and 0.04 ± 0.01 s⁻¹"}
    ]}
  ]
}
